Assay results taken from ChEMBL document CHEMBL5247614, “An overview of aryl hydrocarbon receptor ligands in the Last two decades (2002-2022): A medicinal chemistry perspective” (Eur J Med Chem, 2022).
pKi: −log10 of the molar value.

Target: T1, Aryl hydrocarbon receptor (Homo sapiens, UniProt P35869)
T1 sequence (P35869 whole entry): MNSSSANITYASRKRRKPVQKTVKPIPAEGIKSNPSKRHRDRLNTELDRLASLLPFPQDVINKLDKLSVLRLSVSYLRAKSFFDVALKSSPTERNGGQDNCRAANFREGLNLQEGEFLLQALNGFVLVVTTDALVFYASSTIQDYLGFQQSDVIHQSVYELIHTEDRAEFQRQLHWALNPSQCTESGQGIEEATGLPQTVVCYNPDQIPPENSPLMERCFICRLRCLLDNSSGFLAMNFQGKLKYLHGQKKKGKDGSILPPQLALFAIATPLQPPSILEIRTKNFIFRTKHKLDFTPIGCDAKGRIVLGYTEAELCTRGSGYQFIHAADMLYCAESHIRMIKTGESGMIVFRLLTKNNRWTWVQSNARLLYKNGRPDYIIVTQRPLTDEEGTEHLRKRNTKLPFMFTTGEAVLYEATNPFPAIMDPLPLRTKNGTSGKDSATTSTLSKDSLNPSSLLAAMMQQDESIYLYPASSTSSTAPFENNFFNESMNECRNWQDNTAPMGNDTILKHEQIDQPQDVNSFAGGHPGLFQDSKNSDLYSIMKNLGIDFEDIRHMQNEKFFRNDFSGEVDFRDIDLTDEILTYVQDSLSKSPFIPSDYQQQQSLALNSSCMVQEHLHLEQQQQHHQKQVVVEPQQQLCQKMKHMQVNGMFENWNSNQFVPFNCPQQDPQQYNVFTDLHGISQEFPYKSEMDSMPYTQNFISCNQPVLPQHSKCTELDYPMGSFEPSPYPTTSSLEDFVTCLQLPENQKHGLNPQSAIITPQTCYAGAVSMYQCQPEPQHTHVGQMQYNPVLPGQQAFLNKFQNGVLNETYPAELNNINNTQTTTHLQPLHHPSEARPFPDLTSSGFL

FC(F)(F)c1ccc(/C=C/c2cc(Cl)cc(Cl)c2)cc1
pKi: 9.70
